The results in this text go back to patent US4701521A, “Method of effecting cellular uptake of molecules” (The Trustees of Boston University, priority 1979, dated 1987).

Molecules are shown by their SMILES.

The subject of series [1] is P 1798 S/B tumor, methotrexate-resistant lymphosarcoma. As to the kind of experiment: Antitumor effect (tumor weight), MTX-resistant lymphosarcoma, intravenous. Format: in vivo, BALB/c male mice. The following applies: for Mean Tumor Weight: Mean ± SEM.
In series [2] the test system is P 1798 S/B lymphosarcoma, MTX-resistant. The experiment in a line: Survival of mice bearing MTX-resistant lymphosarcoma. The series is classed as in vivo, BALB/c mice. Here is the method: Treatment consisted of one daily 0.2 ml injection in the tail vein beginning on the sixth day after inoculation, and was continued until the death of the animal. […] In all three groups, the first death occurred on day 10 or 11 and the last survivor died on day 14. By contrasts, in the group receiving MTX-PLL, the first death occurred on day 15 and the last survivor died on day 21. Thus, the use of MTX-PLL conjugate prolonged survival by an average of 6 days.

In series [3] the test system is steroid-resistant, presumably MTX-sensitive variant of P1798 S/B. As to the kind of experiment: Uptake by tumor in vivo, MTX-sensitive. Further details: species or system BALB/c mice. The following applies: 24 hours after one tail vein injection. From the text:
The results of two typical experiments were:

Series [4] concerns MTX-resistant tumor (P1798 S/B lymphosarcoma) cells. As to the kind of experiment: Uptake by tumor cell suspensions in vitro, MTX-resistant. Format: cell-based, mouse. The following applies: for CPM per 1 × 10^5 Cells: 60 minutes 37° C.
The test system of series [5] is MTX-sensitive variant of P1798 S/B lymphosarcoma cells. The experiment in a line: Uptake by tumor cell suspensions in vitro, MTX-sensitive. Format: cell-based, mouse. The following applies: 60 minutes 37° C.
The test system of series [6] is MTX-resistant, steroid-sensitive tumor (P1798 S/B). The experiment in a line: Uptake by tumor in vivo, MTX-resistant. The following applies: for CPM Per 5 × 10^6 Cells: 24 hours after one tail vein injection.

As to `CN(Cc1cnc2nc(N)nc(N)c2n1)c1ccc(C(=O)N[C@@H](CCC(=O)O)C(=O)O)cc1` [MTX, Methotrexate], the “% of Controls (tumor weight)” value in series [1] (Experiment No. 1) came out at 102%; in series [1] (Experiment No. 2), 97%. The “Mean Tumor Weight” value came out at 4.53 ± 0.28 g in series [1] (Experiment No. 1, daily tail vein injection from Day 12, 3 days, PLL MW 2,700) and 4.80 ± 0.50 g in series [1] (Experiment No. 2, daily tail vein injection from 8th day, 4 days). In series [2] (daily i.v. from sixth day after inoculation), the last survivor died turned out to be 14 days. In addition, the “longest survival measured from the initial treatment” value in series [2] (mouse, in vivo) came out at 8 days. In addition, the “CPM Per 5 × 10^6 Cells” value in series [3] (Exp. I) is listed as 2099 CPM; in series [3] (Exp. II) it was 2240 CPM; in series [6] (Exp. I, MTX 3.6 mg/kg, MTX-PLL 3.2 mg/kg, PLL MW 3,100), 63 CPM; in series [6] (Exp. II) it was 94 CPM. Further, the “CPM per 1 × 10^5 Cells” value in series [4] (Exp. I, MTX 8.8×10^-6 M, MTX-PLL 7.3×10^-6 M, PLL MW 3,100) is given as 277 CPM; in series [4] (Exp. II) it was 178 CPM; in series [5] (Exp. I) it was 2,094 CPM; in series [5] (Exp. II), 3,154 CPM. For the same molecule, the “less free drug taken up than by drug sensitive tumor cells” value in series [4] (approximately 8×10^-6 M) is recorded as “about 10 times”. Further, the “lesser uptake of free drug by resistant vs sensitive tumor” value in series [6] (mouse, in vivo) is recorded as approximately 30 fold.
